Data from US6331565A, “Dicaffeoylquinic acid for treating hepatitis B and the diseases associated with retrovirus, and the new caffeoylquinic acid derivatives” (Institute of Radiation Medicine Academy of Military Medical …, priority 1996, dated 2001).
Read-outs that look alike come from different tables or passages of the source.

Columns and labels:
[1] = system: DHBV; assay: anti-DHBV test in ducks (serum DHBV DNA dot blot); assay type: in vivo, DHBV in Peking (Beijing) ducks; conditions: for DHBV DNA, grayness of the dot: X ± SD, n = 7; for viraemia / DHBV DNA, dose and time dependence (words): 5, 12.5, 50 mg/kg/day
Description: One-day-old ducklings were infected with a 200 μl intravenous injection of DHBV-positive serum containing 10^11 viral genome equivalents per milliliter. Treatment began when ducklings were 7 days old. A total 89 seven-day-old viraemic ducks were distributed at random into five groups. Three groups were administered for 14 days with compound A at the dosage of 5, 12.5, and 50 mg.kg of body weight^-1.day^-1, given orally in two equal (morning and evening) dose dissolved in normal saline (NS). Other two groups were treated with NS and Acyelorvir (ACV) at the dosage of 50 mg.kg of body weight^-1.day^-1 instead of compound A respectively. Post-treatment follow-up was carried over a period of 5 days. Blood samples were obtained repectively from the leg vein of all ducks and stored at -70° C. after serum separation, prior to treatment, weekly during the treatment, and for 5 days after cessation of treatment. They were screened for presence of DHBV DNA by dot blot hybridization.
DHBV DNA in serum was analyzed by molecular hybridization using full length DHBV DNA clones in PB325. The DHBV DNA insert was purified by agarose gel electrophoresis after digestion with EcoRI. The DHBV DNA was radiolabeled with α^32 P-dCTP random oligopriming with Klenow fragment. Dot blot hybridization was carried out by the method of Scotto et al. Briefly, an aliquot (200 μl) serum was spotted onto a nylon membrane (Hybond-N, Amersham International, England) in dot blot manifold and denatured with 0.5 M NaOH--NaCl at room temperature for 30 min. Each spotted sample was neutralized in 1M Tris.HCl-1.5M NaCl (pH8.0). The DNA on the membrane was fixed by heating at 80° C. for 2 h, and prehybridization at 37° C. overnight in 50% formamide, 5×Denhardt's, 6×SSC,[…], 0.5% SDS and 10 mg/ml of calf thymus DNA. Hybridization was initiated by adding DHBV [^32 P] DNA probes at 10^6 cpm/ml at the same prehybridization conditions overnight. The membrane was washed in 3×SSC-0.1% SDS at room temperature, 42° C. and 65° C. for 10 min respectively. After hybridization the membranes were air-dried and exposed for periods of up to 14 days at -70° C. with Kodak film with an enhancer screen. The amount of viral DNA were assayed by both densitometry and image analysis of autoradiographic membranes.

[2] = system: HIV-1
Description: (§1) A human T-cell leukemia cell line. MT4 cells, was used in this study. It was maintained in RPMI-1640 medium supplemented with 10% FCS. 100 U/ml of penicillin, and 100 μg/ml of streptomycin at 37° C. in a humidified atmosphere of 5% CO2. Cell cultures were split into fresh medium every 4 days.
(§2) HIV-1 virus was propagated in MT4 cells. The cell-free supernatants of HIV-1 infected MT4 cell culture were used as virus stocks and frozen at -80° C. until used. The 50% tissue culture infected dose (TCID50) of the cell-free virus stock was determined by end-point titration with MT4 cells in 96-well microdilution plates.
MT4 cells in culture were counted by trypan blue exclusion method. The MT4 cells suspended in a small volume of RPMI-1640 medium without FCS and infected with HIV-1 at 200 TCID50 viruses per 10^6 cells. The mixture of MT4 cells and virus was subsequently incubated at 37° C. in a humidified atmosphere of 5% CO2 for 1 hr to allow virus to adsorbed to cells. Unabsorbed viruses were then removed by washing one with […] of the fresh medium and centrifuged at 1000 rpm for ten minutes. The cells were suspended in the medium and distributed into 12-well microculture plates (10^6 cells/3 ml/well). […]
(§3) After 7-day incubation the viable cells was evaluated by MTT method as described above.

[3] = system: HIV-1; conditions: 7 days
Description: as §1, §2
After 4 h, 100 μl of solvent (10% Triton X-100 and 0.4% HCl isopropanol)was added to cultures to solubilizes formazan. After an overnight incubation, the absorbency of each well was measured using a microplate reader (Bio-Rad, model 450) at 560 nm.
MT4 cells in culture were counted by trypan blue exclusion method. The MT4 cells suspended in a small volume of RPMI-1640 medium without FCS and infected with HIV-1 at 200 TCID50 viruses per 10^6 cells. The mixture of MT4 cells and virus was subsequently incubated at 37° C. in a humidified atmosphere of 5% CO2 for 1 hr to allow virus to adsorbed to cells. Unabsorbed viruses were then removed by washing one with […] of the fresh medium and centrifuged at 1000 rpm for ten minutes. The cells were suspended in the medium and distributed into 12-well microculture plates (10^6 cells/3 ml/well). […] After 4-day incubation at 37° C. in a humidified atmosphere containing 5% CO2 the medium was aspirated and the fresh medium containing the same concentration of drug was added.
as §3

[4] = system: lymphocyte proliferation induced by Con A; conditions: for RPI: Normal = 100
Description: mice. Five-wk-old female C57BL/6 mice were used throughout the experiments. All mice were housed in sterile cages in a room supplied with filtrated air. They were given pelleted food and chlorinated water ad libitum.
Infection with LP-BM5 MuLV. Cell-free supernatants of LP-BM5 MULV were prepared by cocultivating G6 SC-1 clones with normal SC-1 cells for 5 days. Mice were inoculated intraperitoneally with 150 μl of stock solution containing 10^3,4×C plaque-forming units and 10^2,3 Mink-cell focks-forming units per […].
Then, the spleens were collected. Cell suspensions were prepared by repeated passage of whole spleen through a pipette, the capsule and debris were allowed to settle, and the supernatants containing cells were collected and washed twice in PBS. […] Incubation continued for 16 hr, then cells were collected on filter that was determined by a scintillation counter.

Structure (SMILES): O=C(/C=C/c1ccc(O)c(O)c1)OC1CC(OC(=O)/C=C/c2ccc(O)c(O)c2)(C(=O)O)CC(O)C1O (stereo not drawn) [Compound A, 1,5-di-O-caffeoylquinic acid]
- DHBV DNA, grayness of the dot ([1]; 5 mg/kg, day 0 (before treatment), oral): 3.4 ± 1.2 K Grayness
- DHBV DNA, grayness of the dot ([1]; 5 mg/kg, day 7, oral): 2.7 ± 0.9 K Grayness
- DHBV DNA, grayness of the dot ([1]; 5 mg/kg, day 14, oral): 1.3 ± 1.3 K Grayness
- DHBV DNA, grayness of the dot ([1]; 12.5 mg/kg, P5 (day 5 after withdrawal)): 1.9 ± 1.4 K Grayness
- DHBV DNA, grayness of the dot ([1]; 12.5 mg/kg, day 0 (before treatment), oral): 2.6 ± 1.9 K Grayness
- DHBV DNA, grayness of the dot ([1]; 12.5 mg/kg, day 7, oral): 1.3 ± 1.3 K Grayness
- DHBV DNA, grayness of the dot ([1]; 12.5 mg/kg, day 14, oral): 0.6 ± 1.1 K Grayness
- DHBV DNA, grayness of the dot ([1]; 50 mg/kg, P5 (day 5 after withdrawal)): 0.5 K Grayness
- DHBV DNA, grayness of the dot ([1]; 50 mg/kg, day 0 (before treatment), oral): 4.0 K Grayness
- DHBV DNA, grayness of the dot ([1]; 50 mg/kg, day 7, oral): 1.3 K Grayness
- DHBV DNA, grayness of the dot ([1]; 50 mg/kg, day 14, oral): 0.5 K Grayness
- viraemia after withdrawal ([1]; 50 mg/kg/day, 4 days after withdrawal, vs NS and ACV): significantly lower than those after NS and ACV
- DHBV DNA after withdrawal ([1]; 50 mg/kg/day, 5 days after withdrawal, vs NS and ACV): significantly lower than those after NS and ACV
- viraemia / DHBV DNA, dose and time dependence (words) [1]: dose- and time-dependent inhibitory effect
- viraemia / DHBV DNA, dose and time dependence (words) ([1]; listed as compound A): decreased in dose- and time-dependently manner
- appearance of syncytia, conclusion [2]: restrain the appearance of syncytia
- syncytia ([2]; dosage over 25 μg/ml, 4 days): no syncytia were observed
- O.D. ([3]; 1.56 μg/ml, 1000 TCID50 (first column pair)): 0.33 ± 0.04 O.D.
- O.D. ([3]; 1.56 μg/ml, 1000 TCID50 (second column pair)): 0.41 ± 0.04 O.D.
- O.D. ([3]; 3.12 μg/ml, 1000 TCID50 (first column pair)): 0.43 ± 0.03 O.D.
- O.D. ([3]; 3.12 μg/ml, 1000 TCID50 (second column pair)): 0.49 ± 0.06 O.D.
- O.D. ([3]; 6.25 μg/ml, 1000 TCID50 (first column pair)): 0.57 ± 0.06 O.D.
- O.D. ([3]; 6.25 μg/ml, 1000 TCID50 (second column pair)): 0.68 ± 0.03 O.D.
- O.D. ([3]; 12.5 μg/ml, 1000 TCID50 (first column pair)): 0.67 ± 0.05 O.D.
- O.D. ([3]; 12.5 μg/ml, 1000 TCID50 (second column pair)): 0.77 ± 0.06 O.D.
- O.D. ([3]; 25 μg/ml, 1000 TCID50 (first column pair)): 0.78 ± 0.03 O.D.
- O.D. ([3]; 25 μg/ml, 1000 TCID50 (second column pair)): 0.83 ± 0.02 O.D.
- O.D. ([3]; 50 μg/ml, 1000 TCID50 (first column pair)): 0.82 ± 0.05 O.D.
- O.D. ([3]; 50 μg/ml, 1000 TCID50 (second column pair)): 0.80 ± 0.02 O.D.
- O.D. ([3]; 100 μg/ml, 1000 TCID50 (first column pair)): 0.72 ± 0.10 O.D.
- O.D. ([3]; 100 μg/ml, 1000 TCID50 (second column pair)): 0.78 ± 0.10 O.D.
- cpm ([4]; 25 mg/kg, Con A (2.5 μg/ml)): 28627 ± 3206 cpm
- RPI ([4]; 25 mg/kg, Con A (2.5 μg/ml)): 80.34
- cpm ([4]; 25 mg/kg, Con A (5 μg/ml)): 49308 ± 2967 cpm
- RPI ([4]; 25 mg/kg, Con A (5 μg/ml)): 88.00
- cpm ([4]; 50 mg/kg, Con A (2.5 μg/ml)): 31579 ± 3312 cpm
- RPI ([4]; 50 mg/kg, Con A (2.5 μg/ml)): 88.63
- cpm ([4]; 50 mg/kg, Con A (5 μg/ml)): 51098 ± 3270 cpm
- RPI ([4]; 50 mg/kg, Con A (5 μg/ml)): 91.19
